This test relates to MOLM-13 cells. Briefly: Cell viability assay. Format: cell-based. Particulars: Homo sapiens, MOLM-13, 96 h, read-out: IC50 cell growth inhibition MOLM-13.

With `COc1cc2c(cc1-c1c(C)noc1C)[nH]c1ccnc(-c3c(C4CC4)n[nH]c3C)c12` [Compound 18, 4-(1-(3-Cyclopropyl-5-methyl-1H-pyrazol-4-yl)-8-methoxy-5H-pyrido[4,3-b]indol-7-yl)-3,5-dimethylisoxazole], the half-maximal inhibitory concentration (IC50) was found to be 66 ± 14 nM.

For the origin of these results see paper PMC5474678 (Journal of medicinal chemistry, 2015).
